Measurements taken from patent publication US7008630B2, “Lipochroman-6 as NO-synthase inhibitor and uses” (L' Oreal, priority 2000, dated 2006).

Amino acid sequences for entries named in this document (tags omitted).
UniProt P35228, whole entry, species assumed: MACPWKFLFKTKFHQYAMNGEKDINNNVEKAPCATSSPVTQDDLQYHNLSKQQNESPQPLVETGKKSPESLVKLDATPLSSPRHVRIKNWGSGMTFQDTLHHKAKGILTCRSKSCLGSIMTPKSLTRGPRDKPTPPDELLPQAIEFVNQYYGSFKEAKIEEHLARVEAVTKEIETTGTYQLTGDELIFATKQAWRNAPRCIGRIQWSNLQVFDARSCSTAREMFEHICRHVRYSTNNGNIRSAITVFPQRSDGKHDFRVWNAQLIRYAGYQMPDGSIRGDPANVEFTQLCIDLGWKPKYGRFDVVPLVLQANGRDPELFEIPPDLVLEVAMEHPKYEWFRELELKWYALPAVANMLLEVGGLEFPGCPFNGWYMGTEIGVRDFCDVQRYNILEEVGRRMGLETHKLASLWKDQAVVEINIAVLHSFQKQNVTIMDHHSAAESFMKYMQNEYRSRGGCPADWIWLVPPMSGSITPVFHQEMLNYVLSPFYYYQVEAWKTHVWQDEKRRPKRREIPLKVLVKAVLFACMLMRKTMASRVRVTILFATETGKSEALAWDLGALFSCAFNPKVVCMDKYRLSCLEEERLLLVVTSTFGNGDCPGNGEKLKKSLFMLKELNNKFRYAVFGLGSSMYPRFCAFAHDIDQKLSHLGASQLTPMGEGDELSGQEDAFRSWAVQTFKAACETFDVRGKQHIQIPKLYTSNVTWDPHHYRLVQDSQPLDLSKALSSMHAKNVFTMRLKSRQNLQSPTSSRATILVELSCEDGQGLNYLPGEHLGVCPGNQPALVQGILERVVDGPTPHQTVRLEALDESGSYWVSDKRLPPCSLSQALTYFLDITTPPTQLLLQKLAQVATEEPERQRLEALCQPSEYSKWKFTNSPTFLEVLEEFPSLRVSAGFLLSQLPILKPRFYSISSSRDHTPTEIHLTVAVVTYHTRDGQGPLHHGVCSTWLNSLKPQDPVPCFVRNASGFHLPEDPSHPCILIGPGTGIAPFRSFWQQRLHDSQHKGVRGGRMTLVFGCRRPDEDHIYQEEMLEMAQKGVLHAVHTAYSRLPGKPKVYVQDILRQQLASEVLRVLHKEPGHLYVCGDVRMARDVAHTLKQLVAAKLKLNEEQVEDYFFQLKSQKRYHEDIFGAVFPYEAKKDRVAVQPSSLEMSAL

Biological target: T1, inducible NO-synthase (NO-synthase 2) (Homo sapiens, UniProt P35228)
T1 construct: positive control (induction of the enzyme): mixtures of γ-interferon (1 000 U/ml) and interleukin-1β (100 U/ml); endogenous in cells
Test: Activity on inducible NO-synthase: decrease in nitrate and nitrite concentration after stimulation of NO-synthase 2 (test of Heck et al.)
Type: cell-based
Conditions: control compound at 200 μM, nitrites and nitrates measured
Method: The activity of lipochroman-6 on inducible NO-synthase was evaluated in the test described by Heck et al. (J. B. C., Vol. 267, No. 30, 21277–21280, Oct. 25, 1992).
In order to determine the activity of the product to be tested, the amount of stable NO reaction products (nitrites and nitrates) is measured using the nitric calorimetric assay kit sold by the company Boehringer under the reference 1756.28.
The lipochroman-6 was tested at the concentrations of 0.005% and 0.01% (weight/volume) in ethanol.

CNC(=N)NCCC[C@H](N)C(=O)O [C, N^G-monomethyl-L-arginine (D form), reference compound]
% inhibition: 0%

CNC(=N)NCCC[C@H](N)C(=O)O [B, N^G-monomethyl-L-arginine (L form), reference compound]
% inhibition: 100%
